Key:
hP2X7R [1] = biological target: T1, hP2X7R (Homo sapiens, UniProt Q99572); assay: Ethidium bromide accumulation in hP2X7R-expressing HEK293 cells
hP2X7R [2] = biological target: T1, hP2X7R; settings: ethidium bromide accumulation, reported previously ref 45; cited from earlier work

Sequences of proteins named here, by UniProt entry; tags and fusion partners are left off.
UniProt Q99572, whole entry: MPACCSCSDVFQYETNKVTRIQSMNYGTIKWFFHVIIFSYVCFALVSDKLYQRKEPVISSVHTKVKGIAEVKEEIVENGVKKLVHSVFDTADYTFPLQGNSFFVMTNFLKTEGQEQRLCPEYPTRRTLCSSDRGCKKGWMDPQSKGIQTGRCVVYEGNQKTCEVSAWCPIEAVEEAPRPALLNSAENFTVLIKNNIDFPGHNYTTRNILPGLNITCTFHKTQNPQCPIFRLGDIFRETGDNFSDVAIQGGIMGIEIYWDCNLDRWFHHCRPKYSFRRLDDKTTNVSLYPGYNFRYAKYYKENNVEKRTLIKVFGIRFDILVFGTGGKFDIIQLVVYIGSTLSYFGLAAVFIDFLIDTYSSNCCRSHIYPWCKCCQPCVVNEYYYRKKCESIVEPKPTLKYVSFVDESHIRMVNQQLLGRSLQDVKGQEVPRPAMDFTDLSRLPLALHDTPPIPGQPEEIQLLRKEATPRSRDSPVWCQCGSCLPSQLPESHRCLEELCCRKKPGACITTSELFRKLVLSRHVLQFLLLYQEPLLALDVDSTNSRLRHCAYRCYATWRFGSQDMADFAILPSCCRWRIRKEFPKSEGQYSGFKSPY

CC12CC3CC1(C)CC3(C(=O)NNc1ccccc1Cl)C2
increase in potency compared to UB-ALT-P30 (hP2X7R [1]; Table 1 IC50 values): two-fold increase in potency
ΔΔGexp (hP2X7R [1]; relative to UB-ALT-P30, from experimental pIC50 values, T = 298 K): -0.59 ± 0.37 kcal/mol
IC50 (hP2X7R [2]): 18 nM

Reference: paper PMC12436592 (Nature Communications, 2025)
